Antibody variant affinities, Ab-95 light chain, assay 2

Target: peptide PDVDLGDISGINAS, taken from heptad repeat 2 (HR2) of SARS-CoV-2 spike.

Each scFv is VH, a 15-residue (Gly4Ser)3 linker, VL, as in the parent Ab-95, and differs from it in the CDRs of the light chain only.
VH: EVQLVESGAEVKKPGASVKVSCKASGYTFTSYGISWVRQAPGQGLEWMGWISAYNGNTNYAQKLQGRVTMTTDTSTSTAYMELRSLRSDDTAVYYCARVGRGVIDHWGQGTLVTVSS
VL: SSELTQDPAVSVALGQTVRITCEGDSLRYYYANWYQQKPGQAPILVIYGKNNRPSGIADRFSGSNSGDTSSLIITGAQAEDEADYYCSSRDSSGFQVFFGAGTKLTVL

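The parent was found by panning a naive human phage display library on the peptide. Variants in AAYL52 differ from the parent at up to three CDR positions; double and triple changes were sampled at random. In AlphaSeq, yeast of one mating type display the scFv and yeast of the other type display the target. Pairs that bind mate more often; barcode pairs of the diploids are counted by sequencing. Each replicate has its own calibration line, from reference interactions of the BCL2 family. There are three technical replicates.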

Changes read parent residue, position, new residue, counted from the first residue of the VL shown.
Numbers give log10(Kd / nM), so 0 is 1 nM and 3 is 1 µM. Smaller is tighter.
Where no diploid with the target was found in that replicate, the entry reads "n.d.": below detection, most likely a poor binder, though not proof of it.

changes,"log10 Kd, replicates",signal with controls
E23N L27I N52C,3.77 n.d. n.d.,2/9 (4.11)
N52K F95I V97P,3.63 n.d. n.d.,2/9 (4.46)
R53N S55M Q96D,4.21 3.55 4.04,4/9 (4.53)
Y30L S93K Q96K,1.66 2.05 2.32,0/9
D25E Y29K F95Y,1.81 2.07 1.64,2/9 (3.14)
R28Y Y30E S93F,n.d. 3.05 n.d.,0/9
E23L Y30C,2.53 2.59 2.15,1/9 (4.93)
A32V S55I Q96E,3.34 2.86 n.d.,3/9 (3.81)
N33E N51Y S55Q,4.53 n.d. 2.62,2/9 (4.66)
L27N P54R Q96G,n.d. 5.70 n.d.,2/9 (4.18)
L27Q A32C K50S,1.80 1.61 0.94,4/9 (3.83)
R53E S88C,n.d. 4.44 4.37,5/9 (3.79)
Y29W A32F F98S,n.d. 4.36 n.d.,3/9 (4.61)
Y31L R53E,4.64 3.74 3.94,2/9 (4.57)
Y30H S55Y Q96G,2.20 2.23 2.14,2/9 (3.48)
R28W Y30H R90K,2.05 1.79 1.22,6/9 (4.05)
R28M Y31P R90S,1.11 1.11 0.49,3/9 (4.82)
Y30A A32T S92I,1.43 1.32 1.04,2/9 (4.83)
R28K G49R F95I,n.d. 5.54 n.d.,2/9 (3.90)
G49E R90P,4.85 2.96 n.d.,1/9 (2.96)
D25C N51H S92D,3.65 n.d. 2.83,1/9 (4.42)
L27E Y30D N52L,2.75 2.39 2.78,0/9
S26A P54L F95N,3.02 2.78 3.41,5/9 (4.11)
A32V S55W,2.48 2.32 n.d.,0/9
G24R P54W S89C,n.d. 5.35 4.46,1/9 (3.76)
N52H R90M F98K,n.d. n.d. n.d.,3/9 (3.57)
Y31C G49Q S89V,3.35 3.86 3.41,3/9 (3.76)
Y29V G49W S92K,n.d. 3.42 3.74,2/9 (3.80)
R28Q A32H S88L,2.85 n.d. 4.06,0/9
N33T G49F F95V,3.86 n.d. n.d.,0/9
N52Y V97Y,3.00 2.39 2.82,4/9 (3.57)
D25R Y31R F95L,4.09 5.40 4.42,2/9 (3.79)
Y30N Y31M G49D,1.00 0.93 0.08,0/9
N33Y S55K F98A,2.99 3.24 4.06,5/9 (4.24)
R28M G49M S89E,4.92 n.d. n.d.,0/9
G24H S89P S93K,3.93 3.37 n.d.,5/9 (4.10)
K50I R53G Q96V,4.57 5.64 3.56,5/9 (4.14)
P54A S88K F98M,4.26 n.d. n.d.,3/9 (4.21)

Excerpt, the final 5 entries:

{"changes": "N33Y S55K F98A", "log10 Kd, replicates": "2.99 3.24 4.06", "signal with controls": "5/9 (4.24)"}
{"changes": "R28M G49M S89E", "log10 Kd, replicates": "4.92 n.d. n.d.", "signal with controls": "0/9"}
{"changes": "G24H S89P S93K", "log10 Kd, replicates": "3.93 3.37 n.d.", "signal with controls": "5/9 (4.10)"}
{"changes": "K50I R53G Q96V", "log10 Kd, replicates": "4.57 5.64 3.56", "signal with controls": "5/9 (4.14)"}
{"changes": "P54A S88K F98M", "log10 Kd, replicates": "4.26 n.d. n.d.", "signal with controls": "3/9 (4.21)"}

For reference, the parent read 2.31 as the reference entry and 2.25 as a member of this library.
Background: pairings of library AAYL52 with three empty control strains gave a value in 28% of cases (median 3.91, 5th percentile 2.90). Values in that range, when seen in few replicates, are hard to tell from nonspecific mating. For each scFv, signals with the empty controls are counted beside the result, with their mean in brackets.

From the AlphaSeq antibody data of Engelhart et al. 2022 (doi:10.1038/s41597-022-01779-4), copy in the FLAb collection.